Legend:
Test in all cases: Full kinase panel inhibition by Example compounds 8 and 51 at 1 μM (Tables 11 to 14; kinase named in each table line)
[1] = target: full kinase panel (Homo sapiens, UniProt Q9Y4K4); settings: KHS/MAP4K5
[2] = target: full kinase panel (Homo sapiens, UniProt P22455); settings: FGFR4
[3] = target: full kinase panel (Homo sapiens, UniProt Q9H1R3); settings: MLCK2/MYLK2
[4] = target: full kinase panel (Homo sapiens, UniProt P04629); settings: TRKA
[5] = target: full kinase panel (Homo sapiens, UniProt P35916); settings: FLT4/VEGFR3
[6] = target: full kinase panel (Homo sapiens, UniProt Q13882); settings: BRK
[7] = target: full kinase panel (Homo sapiens, UniProt P22607); settings: FGFR3
[8] = target: full kinase panel (Homo sapiens, UniProt P16591); settings: FER
[9] = target: full kinase panel (Homo sapiens, UniProt P54760); settings: EPHB4
[10] = target: full kinase panel (Homo sapiens, UniProt P54756); settings: EPHA5
[11] = target: full kinase panel (Homo sapiens, UniProt Q16584); settings: MLK3/MAP3K11
[12] = target: full kinase panel (Homo sapiens, UniProt O15146); settings: MUSK
[13] = target: full kinase panel (Homo sapiens, UniProt P15056); settings: BRAF
[14] = target: full kinase panel (Homo sapiens, UniProt Q9H2K8); settings: TAOK3/JIK
[15] = target: full kinase panel (Homo sapiens, UniProt P51813); settings: BMX/ETK
[16] = target: full kinase panel (Homo sapiens, UniProt Q9UL54); settings: TAOK2/TAO1
[17] = target: full kinase panel (Homo sapiens, UniProt Q9H2G2); settings: SLK/STK2
[18] = target: full kinase panel (Homo sapiens, UniProt P07948); settings: LYN
[19] = target: full kinase panel (Homo sapiens, UniProt P29322); settings: EPHA8
[20] = target: full kinase panel (Homo sapiens, UniProt P52333); settings: JAK3
[21] = target: full kinase panel (Homo sapiens, UniProt Q07912); settings: ACK1
[22] = target: full kinase panel (Homo sapiens, UniProt P07332); settings: FES/FPS
[23] = test system: full kinase panel; settings: LYN B
[24] = target: full kinase panel (Homo sapiens, UniProt P21709); settings: EPHA1
[25] = target: full kinase panel (Homo sapiens, UniProt P36888); settings: FLT3
[26] = target: full kinase panel (Homo sapiens, UniProt P29323); settings: EPHB2
[27] = target: full kinase panel (Homo sapiens, UniProt P54753); settings: EPHB3
[28] = target: full kinase panel (Homo sapiens, UniProt Q15759); settings: P38B/MAPK11
[29] = target: full kinase panel (Homo sapiens, UniProt Q06187); settings: BTK
[30] = target: full kinase panel (Homo sapiens, UniProt P29597); settings: TYK2
[31] = target: full kinase panel (Homo sapiens, UniProt Q9NY57); settings: STK32B/YANK2
[32] = target: full kinase panel (Homo sapiens, UniProt P12931); settings: C-SRC
[33] = target: full kinase panel (Homo sapiens, UniProt Q8N4C8); settings: MINK/MINK1
[34] = target: full kinase panel (Homo sapiens, UniProt P16234); settings: PDGFRA
[35] = target: full kinase panel (Homo sapiens, UniProt Q9Y2K2); settings: SIK3
[36] = target: full kinase panel (Homo sapiens, UniProt P29317); settings: EPHA2
[37] = target: full kinase panel (Homo sapiens, UniProt P11362); settings: FGFR1
[38] = target: full kinase panel (Homo sapiens, UniProt P53671); settings: LIMK2
[39] = target: full kinase panel (Homo sapiens, UniProt P42680); settings: TEC
[40] = target: full kinase panel (Homo sapiens, UniProt Q9H3Y6); settings: SRMS
[41] = target: full kinase panel (Homo sapiens, UniProt P53667); settings: LIMK1

By UniProt entry, the sequences of proteins in these tests, tags left out. Residues count along the entry.
UniProt Q9H1R3, whole entry: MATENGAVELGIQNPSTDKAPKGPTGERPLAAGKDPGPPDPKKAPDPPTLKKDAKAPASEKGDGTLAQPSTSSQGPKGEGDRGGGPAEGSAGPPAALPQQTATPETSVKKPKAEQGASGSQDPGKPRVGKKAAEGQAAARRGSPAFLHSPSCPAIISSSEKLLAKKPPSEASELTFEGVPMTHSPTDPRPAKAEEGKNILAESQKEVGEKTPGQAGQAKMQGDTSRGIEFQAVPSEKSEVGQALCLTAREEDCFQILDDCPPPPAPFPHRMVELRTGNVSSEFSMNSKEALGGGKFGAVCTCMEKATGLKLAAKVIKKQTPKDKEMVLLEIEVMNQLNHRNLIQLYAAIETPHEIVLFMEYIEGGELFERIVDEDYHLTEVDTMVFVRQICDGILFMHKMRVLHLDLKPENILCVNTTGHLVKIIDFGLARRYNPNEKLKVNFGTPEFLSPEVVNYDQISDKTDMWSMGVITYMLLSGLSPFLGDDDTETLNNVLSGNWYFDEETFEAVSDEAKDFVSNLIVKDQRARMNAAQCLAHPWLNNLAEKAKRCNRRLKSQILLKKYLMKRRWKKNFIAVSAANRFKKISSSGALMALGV
UniProt P16591, whole entry: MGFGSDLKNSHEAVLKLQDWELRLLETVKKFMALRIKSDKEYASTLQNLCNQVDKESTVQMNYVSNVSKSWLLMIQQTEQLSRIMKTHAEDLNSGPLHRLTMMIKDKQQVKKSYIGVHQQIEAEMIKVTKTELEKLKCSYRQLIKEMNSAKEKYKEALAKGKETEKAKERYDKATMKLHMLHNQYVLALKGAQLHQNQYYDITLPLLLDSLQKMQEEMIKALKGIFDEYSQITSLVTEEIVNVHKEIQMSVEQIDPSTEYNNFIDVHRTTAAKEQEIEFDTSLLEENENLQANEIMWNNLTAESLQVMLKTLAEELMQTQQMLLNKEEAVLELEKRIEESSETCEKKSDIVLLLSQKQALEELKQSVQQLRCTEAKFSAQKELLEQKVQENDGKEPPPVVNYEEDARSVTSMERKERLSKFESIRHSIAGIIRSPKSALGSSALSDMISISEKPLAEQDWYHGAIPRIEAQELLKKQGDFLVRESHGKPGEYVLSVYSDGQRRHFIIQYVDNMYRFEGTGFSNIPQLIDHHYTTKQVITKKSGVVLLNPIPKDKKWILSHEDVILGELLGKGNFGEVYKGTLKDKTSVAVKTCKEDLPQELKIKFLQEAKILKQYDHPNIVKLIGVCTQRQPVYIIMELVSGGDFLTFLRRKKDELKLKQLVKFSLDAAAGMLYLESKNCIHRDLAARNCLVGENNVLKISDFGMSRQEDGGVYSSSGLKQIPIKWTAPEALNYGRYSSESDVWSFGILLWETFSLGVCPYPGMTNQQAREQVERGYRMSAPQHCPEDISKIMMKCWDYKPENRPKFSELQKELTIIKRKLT
UniProt P54756, 25-1037 limits assumed: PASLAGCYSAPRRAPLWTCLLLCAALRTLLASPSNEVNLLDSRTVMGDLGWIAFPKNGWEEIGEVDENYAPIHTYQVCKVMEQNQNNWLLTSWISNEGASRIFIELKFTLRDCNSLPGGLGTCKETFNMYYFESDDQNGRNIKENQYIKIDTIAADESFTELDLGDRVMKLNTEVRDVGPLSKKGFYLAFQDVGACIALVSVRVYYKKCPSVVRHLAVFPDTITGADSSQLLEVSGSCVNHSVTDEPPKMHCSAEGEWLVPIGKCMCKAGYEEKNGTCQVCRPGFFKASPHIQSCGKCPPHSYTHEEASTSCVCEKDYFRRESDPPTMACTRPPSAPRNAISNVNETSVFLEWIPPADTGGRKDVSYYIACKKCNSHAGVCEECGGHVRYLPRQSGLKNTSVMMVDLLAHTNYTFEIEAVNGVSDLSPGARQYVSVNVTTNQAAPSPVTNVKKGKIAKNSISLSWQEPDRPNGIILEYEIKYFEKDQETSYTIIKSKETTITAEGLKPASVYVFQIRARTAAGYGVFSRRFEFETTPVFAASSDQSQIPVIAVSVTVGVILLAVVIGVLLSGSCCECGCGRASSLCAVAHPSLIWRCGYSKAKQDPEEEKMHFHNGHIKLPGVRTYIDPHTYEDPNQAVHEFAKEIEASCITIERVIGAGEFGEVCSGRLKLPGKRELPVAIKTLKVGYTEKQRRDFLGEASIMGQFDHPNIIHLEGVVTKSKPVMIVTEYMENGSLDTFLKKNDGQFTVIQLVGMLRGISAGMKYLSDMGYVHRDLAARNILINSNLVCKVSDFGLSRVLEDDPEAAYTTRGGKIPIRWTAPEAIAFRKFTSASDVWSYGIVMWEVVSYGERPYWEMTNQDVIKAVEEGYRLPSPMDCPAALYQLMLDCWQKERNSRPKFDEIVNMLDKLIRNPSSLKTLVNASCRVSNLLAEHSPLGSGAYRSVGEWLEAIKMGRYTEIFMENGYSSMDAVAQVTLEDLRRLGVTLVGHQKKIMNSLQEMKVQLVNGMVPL
UniProt P51813, whole entry: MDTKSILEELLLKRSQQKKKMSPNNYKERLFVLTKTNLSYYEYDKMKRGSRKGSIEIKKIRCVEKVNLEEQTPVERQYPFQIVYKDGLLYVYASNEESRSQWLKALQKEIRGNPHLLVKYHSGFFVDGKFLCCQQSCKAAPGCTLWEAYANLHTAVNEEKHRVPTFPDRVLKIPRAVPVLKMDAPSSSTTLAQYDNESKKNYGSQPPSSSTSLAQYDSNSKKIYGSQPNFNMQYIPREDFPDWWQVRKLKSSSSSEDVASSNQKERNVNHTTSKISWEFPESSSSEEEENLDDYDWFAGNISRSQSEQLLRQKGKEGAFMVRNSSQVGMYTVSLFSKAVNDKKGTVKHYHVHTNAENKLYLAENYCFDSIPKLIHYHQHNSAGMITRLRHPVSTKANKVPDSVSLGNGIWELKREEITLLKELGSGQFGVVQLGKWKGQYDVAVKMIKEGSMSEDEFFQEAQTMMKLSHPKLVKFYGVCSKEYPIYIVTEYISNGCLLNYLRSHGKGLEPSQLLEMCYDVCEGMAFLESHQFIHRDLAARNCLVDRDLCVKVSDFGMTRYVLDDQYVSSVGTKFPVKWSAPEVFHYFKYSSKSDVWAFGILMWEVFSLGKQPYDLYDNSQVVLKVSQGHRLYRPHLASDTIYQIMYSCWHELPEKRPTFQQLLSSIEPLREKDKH
UniProt Q9UL54, whole entry: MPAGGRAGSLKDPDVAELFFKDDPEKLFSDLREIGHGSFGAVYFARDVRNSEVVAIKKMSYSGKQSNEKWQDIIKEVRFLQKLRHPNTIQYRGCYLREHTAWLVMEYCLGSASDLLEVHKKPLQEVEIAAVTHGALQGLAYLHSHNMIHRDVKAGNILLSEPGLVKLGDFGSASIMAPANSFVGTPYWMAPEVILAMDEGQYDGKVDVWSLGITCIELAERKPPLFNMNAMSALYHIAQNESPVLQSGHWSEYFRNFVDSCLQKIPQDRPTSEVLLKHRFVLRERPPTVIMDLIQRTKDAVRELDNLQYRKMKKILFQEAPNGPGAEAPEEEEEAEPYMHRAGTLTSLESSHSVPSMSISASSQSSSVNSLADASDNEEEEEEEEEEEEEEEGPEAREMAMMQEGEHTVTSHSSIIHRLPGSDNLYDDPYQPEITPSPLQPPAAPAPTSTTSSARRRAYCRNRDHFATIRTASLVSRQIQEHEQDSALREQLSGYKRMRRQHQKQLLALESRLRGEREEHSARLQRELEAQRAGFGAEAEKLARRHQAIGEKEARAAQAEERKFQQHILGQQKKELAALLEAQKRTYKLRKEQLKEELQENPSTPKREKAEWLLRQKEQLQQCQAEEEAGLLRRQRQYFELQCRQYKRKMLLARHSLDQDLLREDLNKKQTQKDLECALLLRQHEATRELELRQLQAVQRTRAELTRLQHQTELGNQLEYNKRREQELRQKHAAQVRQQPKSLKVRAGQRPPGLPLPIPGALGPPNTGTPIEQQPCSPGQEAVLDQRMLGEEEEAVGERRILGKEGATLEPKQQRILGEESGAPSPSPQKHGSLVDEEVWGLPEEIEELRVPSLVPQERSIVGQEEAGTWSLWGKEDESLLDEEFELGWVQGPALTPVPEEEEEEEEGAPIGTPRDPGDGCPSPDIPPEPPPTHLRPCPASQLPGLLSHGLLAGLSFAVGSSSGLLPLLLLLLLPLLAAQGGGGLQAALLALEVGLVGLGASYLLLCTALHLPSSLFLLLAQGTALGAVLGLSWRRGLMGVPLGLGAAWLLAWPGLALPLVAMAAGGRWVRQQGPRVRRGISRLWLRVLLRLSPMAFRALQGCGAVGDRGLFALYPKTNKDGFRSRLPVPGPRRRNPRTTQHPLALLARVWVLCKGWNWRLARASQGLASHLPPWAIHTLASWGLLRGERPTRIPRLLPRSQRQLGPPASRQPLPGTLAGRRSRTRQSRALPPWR
UniProt Q15759, whole entry: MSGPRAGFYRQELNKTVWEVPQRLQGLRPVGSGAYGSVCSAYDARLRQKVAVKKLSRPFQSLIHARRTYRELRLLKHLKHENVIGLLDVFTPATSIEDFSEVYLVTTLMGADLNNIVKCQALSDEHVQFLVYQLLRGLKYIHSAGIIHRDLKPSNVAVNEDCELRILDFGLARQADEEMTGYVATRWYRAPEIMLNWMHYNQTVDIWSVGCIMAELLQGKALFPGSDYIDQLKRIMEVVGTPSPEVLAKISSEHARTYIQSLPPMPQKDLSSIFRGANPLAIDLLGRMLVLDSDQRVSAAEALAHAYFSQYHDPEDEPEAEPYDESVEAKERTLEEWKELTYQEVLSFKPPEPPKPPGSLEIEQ
UniProt Q06187, whole entry: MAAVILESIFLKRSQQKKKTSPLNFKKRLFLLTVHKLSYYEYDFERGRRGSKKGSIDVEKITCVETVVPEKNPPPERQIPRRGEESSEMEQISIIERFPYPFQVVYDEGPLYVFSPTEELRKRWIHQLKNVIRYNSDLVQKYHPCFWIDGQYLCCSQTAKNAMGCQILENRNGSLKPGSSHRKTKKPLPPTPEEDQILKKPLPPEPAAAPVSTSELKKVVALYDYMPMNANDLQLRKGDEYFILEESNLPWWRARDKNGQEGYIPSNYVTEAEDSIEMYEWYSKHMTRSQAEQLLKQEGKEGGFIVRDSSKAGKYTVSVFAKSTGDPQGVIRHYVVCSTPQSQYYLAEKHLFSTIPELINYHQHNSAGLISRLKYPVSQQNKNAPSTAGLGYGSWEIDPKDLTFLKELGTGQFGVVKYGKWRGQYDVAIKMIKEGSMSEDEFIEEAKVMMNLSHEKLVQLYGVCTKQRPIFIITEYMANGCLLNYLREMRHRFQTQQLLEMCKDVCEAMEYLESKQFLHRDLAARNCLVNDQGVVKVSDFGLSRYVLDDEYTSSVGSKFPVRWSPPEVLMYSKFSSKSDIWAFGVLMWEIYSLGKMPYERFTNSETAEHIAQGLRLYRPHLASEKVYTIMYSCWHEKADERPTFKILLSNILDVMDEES
UniProt P12931, whole entry: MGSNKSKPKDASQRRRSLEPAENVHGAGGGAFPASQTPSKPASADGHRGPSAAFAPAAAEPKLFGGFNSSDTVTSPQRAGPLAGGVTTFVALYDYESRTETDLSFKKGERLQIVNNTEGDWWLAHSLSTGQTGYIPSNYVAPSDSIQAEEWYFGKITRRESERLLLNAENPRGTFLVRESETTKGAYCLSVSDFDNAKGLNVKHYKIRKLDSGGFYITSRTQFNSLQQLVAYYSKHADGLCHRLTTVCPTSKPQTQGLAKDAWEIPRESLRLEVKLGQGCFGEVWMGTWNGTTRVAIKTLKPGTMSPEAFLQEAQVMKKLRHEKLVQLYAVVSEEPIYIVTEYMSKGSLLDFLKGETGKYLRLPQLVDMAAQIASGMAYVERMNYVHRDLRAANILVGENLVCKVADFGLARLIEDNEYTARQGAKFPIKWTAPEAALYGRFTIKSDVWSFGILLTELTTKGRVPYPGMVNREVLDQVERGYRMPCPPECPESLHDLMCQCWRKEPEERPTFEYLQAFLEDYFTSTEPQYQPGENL
UniProt P53671, whole entry: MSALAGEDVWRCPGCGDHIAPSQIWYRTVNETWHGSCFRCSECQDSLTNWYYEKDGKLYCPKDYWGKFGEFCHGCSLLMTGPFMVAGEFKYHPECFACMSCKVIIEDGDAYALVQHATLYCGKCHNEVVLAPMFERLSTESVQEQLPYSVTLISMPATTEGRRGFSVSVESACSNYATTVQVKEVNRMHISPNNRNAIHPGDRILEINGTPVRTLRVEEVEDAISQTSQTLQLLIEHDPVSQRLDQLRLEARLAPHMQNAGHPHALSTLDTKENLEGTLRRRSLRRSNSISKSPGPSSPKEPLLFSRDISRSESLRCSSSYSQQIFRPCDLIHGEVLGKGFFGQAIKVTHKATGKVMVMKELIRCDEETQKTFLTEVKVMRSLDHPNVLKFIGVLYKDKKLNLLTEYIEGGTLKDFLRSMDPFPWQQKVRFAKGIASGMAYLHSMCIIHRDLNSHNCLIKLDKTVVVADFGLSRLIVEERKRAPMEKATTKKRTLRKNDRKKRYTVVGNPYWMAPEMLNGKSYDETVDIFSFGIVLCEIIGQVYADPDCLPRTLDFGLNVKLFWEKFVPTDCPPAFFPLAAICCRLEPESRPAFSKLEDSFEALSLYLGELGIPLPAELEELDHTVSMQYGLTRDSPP

## Cc1ccc(Nc2ncc3c(n2)C2(CC2)C(=O)N(c2cc(NC(=O)c4cccc(C(F)(F)F)c4)ccc2C)C3)cn1
[1]
  kinase inhibition (residual enzyme activity): ◯ (residual enzyme activity values were 40% or less, i.e., inhibited by 60% or more)
[2]
  kinase inhibition (residual enzyme activity): ◯ (residual enzyme activity values were 40% or less, i.e., inhibited by 60% or more)
[3]
  kinase inhibition (residual enzyme activity): ◯ (residual enzyme activity values were 40% or less, i.e., inhibited by 60% or more)
[4]
  kinase inhibition (residual enzyme activity): ◯ (residual enzyme activity values were 40% or less, i.e., inhibited by 60% or more)
[5]
  kinase inhibition (residual enzyme activity): ◯ (residual enzyme activity values were 40% or less, i.e., inhibited by 60% or more)
[6]
  kinase inhibition (residual enzyme activity): ◯ (residual enzyme activity values were 40% or less, i.e., inhibited by 60% or more)
[7]
  kinase inhibition (residual enzyme activity): ◯ (residual enzyme activity values were 40% or less, i.e., inhibited by 60% or more)
[8]
  kinase inhibition (residual enzyme activity): ◯ (residual enzyme activity values were 40% or less, i.e., inhibited by 60% or more)
[9]
  kinase inhibition (residual enzyme activity): ◯ (residual enzyme activity values were 40% or less, i.e., inhibited by 60% or more)
[10]
  kinase inhibition (residual enzyme activity): ◯ (residual enzyme activity values were 40% or less, i.e., inhibited by 60% or more)
[11]
  kinase inhibition (residual enzyme activity): ◯ (residual enzyme activity values were 40% or less, i.e., inhibited by 60% or more)
[12]
  kinase inhibition (residual enzyme activity): ◯ (residual enzyme activity values were 40% or less, i.e., inhibited by 60% or more)
[13]
  kinase inhibition (residual enzyme activity): ◯ (residual enzyme activity values were 40% or less, i.e., inhibited by 60% or more)
[14]
  kinase inhibition (residual enzyme activity): ◯ (residual enzyme activity values were 40% or less, i.e., inhibited by 60% or more)
[15]
  kinase inhibition (residual enzyme activity): ◯ (residual enzyme activity values were 40% or less, i.e., inhibited by 60% or more)
[16]
  kinase inhibition (residual enzyme activity): ◯ (residual enzyme activity values were 40% or less, i.e., inhibited by 60% or more)
[17]
  kinase inhibition (residual enzyme activity): ◯ (residual enzyme activity values were 40% or less, i.e., inhibited by 60% or more)
[18]
  kinase inhibition (residual enzyme activity): ◯ (residual enzyme activity values were 40% or less, i.e., inhibited by 60% or more)
[19]
  kinase inhibition (residual enzyme activity): ◯ (residual enzyme activity values were 40% or less, i.e., inhibited by 60% or more)
[20]
  kinase inhibition (residual enzyme activity): ◯ (residual enzyme activity values were 40% or less, i.e., inhibited by 60% or more)
[21]
  kinase inhibition (residual enzyme activity): ◯ (residual enzyme activity values were 40% or less, i.e., inhibited by 60% or more)
[22]
  kinase inhibition (residual enzyme activity): ◯ (residual enzyme activity values were 40% or less, i.e., inhibited by 60% or more)
[23]
  kinase inhibition (residual enzyme activity): ◯ (residual enzyme activity values were 40% or less, i.e., inhibited by 60% or more)
[24]
  kinase inhibition (residual enzyme activity): ◯ (residual enzyme activity values were 40% or less, i.e., inhibited by 60% or more)
[25]
  kinase inhibition (residual enzyme activity): ◯ (residual enzyme activity values were 40% or less, i.e., inhibited by 60% or more)
[26]
  kinase inhibition (residual enzyme activity): ◯ (residual enzyme activity values were 40% or less, i.e., inhibited by 60% or more)
[27]
  kinase inhibition (residual enzyme activity): ◯ (residual enzyme activity values were 40% or less, i.e., inhibited by 60% or more)
[28]
  kinase inhibition (residual enzyme activity): ◯ (residual enzyme activity values were 40% or less, i.e., inhibited by 60% or more)
[29]
  kinase inhibition (residual enzyme activity): ◯ (residual enzyme activity values were 40% or less, i.e., inhibited by 60% or more)
[30]
  kinase inhibition (residual enzyme activity): ◯ (residual enzyme activity values were 40% or less, i.e., inhibited by 60% or more)
[31]
  kinase inhibition (residual enzyme activity): ◯ (residual enzyme activity values were 40% or less, i.e., inhibited by 60% or more)
[32]
  kinase inhibition (residual enzyme activity): ◯ (residual enzyme activity values were 40% or less, i.e., inhibited by 60% or more)
[33]
  kinase inhibition (residual enzyme activity): ◯ (residual enzyme activity values were 40% or less, i.e., inhibited by 60% or more)
[34]
  kinase inhibition (residual enzyme activity): ◯ (residual enzyme activity values were 40% or less, i.e., inhibited by 60% or more)
[35]
  kinase inhibition (residual enzyme activity): ◯ (residual enzyme activity values were 40% or less, i.e., inhibited by 60% or more)
[36]
  kinase inhibition (residual enzyme activity): ◯ (residual enzyme activity values were 40% or less, i.e., inhibited by 60% or more)
[37]
  kinase inhibition (residual enzyme activity): ◯ (residual enzyme activity values were 40% or less, i.e., inhibited by 60% or more)
[38]
  kinase inhibition (residual enzyme activity): ◯ (residual enzyme activity values were 40% or less, i.e., inhibited by 60% or more)
[39]
  kinase inhibition (residual enzyme activity): ◯ (residual enzyme activity values were 40% or less, i.e., inhibited by 60% or more)
[40]
  kinase inhibition (residual enzyme activity): ◯ (residual enzyme activity values were 40% or less, i.e., inhibited by 60% or more)
[41]
  kinase inhibition (residual enzyme activity): ◯ (residual enzyme activity values were 40% or less, i.e., inhibited by 60% or more)

— patent US20260382623A1, “NOVEL COMPOUND FOR INHIBITING PROTEIN KINASES AND PHARMACEUTICAL COMPOSITION COMPRISING SAME” (published 2026)
